Screens as filed in PubChem BioAssay.
UUG fidelity = alters start codon recognition fidelity in yeast. S. cerevisiae UUG-firefly luciferase reporter, luminescence/redox ratio. AID 602363. activity score, % at 18.7 µM. hit rate 0.13% among 350,000;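 active = replicate mean at a twofold rise or more, about +100% in these data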;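 note: firefly luciferase made from a UUG start codon reports start codon fidelity; reporter light over untreated wells divided by growth signal over untreated wells; some hits fall short of that in this replicate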
MITF act = increases MITF-driven TRPM1 promoter luciferase signal. SK-MEL-5 TRPM1-promoter luciferase, 24 h; % of positive control, neutral wells = 0. activation, % at 12.5 µM. 300,000 tested, 0.75% active. AID 588334;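 active means mean activation of at least 80% with every replicate also reaching 80%; inconclusive means mean reaches 80% but some replicate falls short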;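 further: 0% = neutral control wells and 100% = parthenolide positive control wells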
TRPM1 prom inh = MITF TRPM1 promoter inhibition in SK-MEL-5 cells; inhibition, % at 12.5 µM; SK-MEL-5 TRPM1 promoter luciferase, 24 h; AID 488899; 330,000 tested, 0.83% active;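 active means mean inhibition across replicates of 60% or more, whatever share of single replicates reaches that level; inconclusive means some that reach 60%, reason not given; inactive means mean inhibition across replicates below 60%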
miR-122 sensor = miR-122 inhibition in Huh7 cells; Huh7 miR-122 Renilla luciferase sensor, 48 h; neutral wells = 0, positive control = 100; activation (reporter increase), % at 12.5 µM; 340,000 tested, 0.3% active;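 active means mean replicate activation score at least 90 and every replicate individually at or above 90; inconclusive means only one of the two criteria met; inactive means neither criterion met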;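 further: higher luciferase means less miR-122 activity so hits act as miR-122 inhibitors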
PGC1a acetyl inh = PGC1a acetylation modulation, inhibitor mode. U2OS PGC1a acetylation, AlphaScreen anti-acetyl-lysine; with virally co-expressed GCN5 acetyltransferase. inhibition, % at 15.6 µM. 350,000 tested, 0.17% active. AID 651687;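 active means every replicate shows inhibition of at least 40%; inconclusive means mean inhibition at least 40% but some replicate below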;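 further: 0% = neutral control wells and 100% = positive control wells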
Wnt bcat act = activates Wnt/beta-catenin signaling in a reporter cell assay; activator, plate reader; activation, % at 9.35 µM; 300,000 tested, 1.2% active; AID 743398; in the data active means activation above about 30%, passing the limit was not always enough; inconclusive means no clear call, values can overlap the other calls;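 further: 0% = neutral control wells and 100% = positive control wells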
An asterisk follows results filed as active; ? = inconclusive; / = no result given; ! = not active in a repeat; [ ] = dose if it differs, or a comment. Most compounds without a hit are left out; they make up all but 2.1% or so of the library.

SMILES	UUG fidelity	MITF act	TRPM1 prom inh	miR-122 sensor	PGC1a acetyl inh	Wnt bcat act
O=C(Nc1nc(=O)c2ccccc2s1)c1ccccc1	-20	23	-18	8	-28	39*
O=C(Nc1nc2ccccc2s1)c1ccc(F)cc1	-25	29	-31	/	/	47*
COc1ccccc1C(=O)Nc1nnc(-c2ccc(F)cc2)s1	-22	/	-29	-3	3	13
O=C(Nc1ccccc1F)N[C@H]1CC[C@H](CCNS(=O)(=O)c2ccc(F)cc2)O[C@@H]1CO	18	/	/	/	-3	/
COC(=O)C1=C(Nc2ccccc2NC(=O)c2ccccc2C(=O)O)CSC1	-6	-6	8	-4	0	41*
COC(=O)C1=C(Nc2ccccc2NC(=O)CCCC(=O)O)CSC1	-14	/	-2	0	-3	3
COc1ccc(NS(=O)(=O)c2cc(NC(=O)c3ccco3)ccc2N2CCCCC2)cc1	/	-8	16	209*	/	/
COc1ccc(NS(=O)(=O)c2cc(NC(=O)c3ccc(=O)[nH]c3)ccc2N2CCCC2)cc1	5	-9	8	155*	-10	-6
COc1ccc(NS(=O)(=O)c2cc(NC(=O)C3CC3)ccc2N2CCCCC2)cc1	-7	-11	10	48	-26	-1
COc1ccc2c(c1)CCc1c(C(=O)N3CCCCCC3)noc1-2	-7	121*	-115	28	-3	/
CCCNC(=O)c1noc2c1CCc1cc(OC)ccc1-2	-28	63	-68	-12	-9	0
COc1ccc2c(c1)CCc1c(C(=O)NCC(C)C)noc1-2	-20	109*	-114	-25	-5	53*
O=C1CN(Cc2ccccc2)C[C@@H]2[C@@H](c3ccc(-c4ccccc4F)cc3)[C@@H](CO)N12	/	/	/	/	6	/
C[C@@H]1CN([C@@H](C)CO)C(=O)c2cc(NC(=O)Nc3ccc(F)cc3)ccc2O[C@@H]1CN(C)C(=O)Nc1ccc(C(F)(F)F)cc1	-15	/	/	-4[16.7 µM]	2	/
COc1ccc2c3c(n(C)c2c1)[C@@H](CO)N(Cc1ccccc1Cl)CC31CN(C(C)=O)C1	/	/	/	/	8	/
CC1CCN(C(=O)c2ccc(-c3ccccc3Cl)o2)CC1	/	110*	-111	/	/	44*
O=C(c1ccc(-c2cccc(Cl)c2Cl)o1)N1CCOCC1	-9	86*	-82	-4	-2	34*
NC(=O)C1CCCN(C(=O)c2ccc(-c3cccc(Cl)c3Cl)o2)C1 (stereo not given)	-17	80	-80	-3	-10	38*
CN(C)CCCNC(=O)[C@@H]1[C@@H](CO)[C@@H]2Cn3c(ccc(-c4cccc(F)c4)c3=O)[C@@H]2N1C	/	/	/	-1[16.7 µM]	/	/
COc1ccc2cc(C(N)=O)c(=Nc3ccccc3)oc2c1	/	102*	-101	/	/	?
C[C@@H]1CN([C@@H](C)CO)C(=O)c2cc(/C=C/c3ccccc3)cnc2O[C@@H]1CN(C)Cc1cncnc1	/	/	/	/	11	/
CCn1c(NC(=S)Nc2ccccc2)nc2ccccc21	-32	/	-27	-6	-28	33*
CCCn1c(NC(=S)Nc2ccccc2)nc2ccccc21	-6	16	-15	2	-12	/
O=C(c1cccs1)n1cc(C(=S)N2CCOCC2)c2ccccc21	-25	-10	12	0	6	50*
CCC(=O)N1CC2(C1)[C@H](c1ccc(-c3ccccc3)cc1)[C@H](CO)N2S(C)(=O)=O	/	/	/	/	5	/
COc1ccc2c(=O)c(-c3ccc4c(c3)OCO4)coc2c1	-32	-5	4	-11	/	40*
CC(C)Oc1ccc2c(=O)c(-c3ccccc3)coc2c1	-29	78	-77	0	-1	56*
O=C(C[C@@H]1CC[C@H](NC(=O)C2CCC2)[C@H](CO)O1)NCc1ccccc1Cl	-18	/	/	/	-8	/
COc1ccc(NC(=S)NC(=O)c2ccc(Br)o2)cc1	-5	90*	-83	23	-9	24
O=C(NC(=S)Nc1ccccc1)c1ccc(Br)o1	-5	53	-50	7	-2	50*
c1ccc(-c2nnc(NC3=NCCC3)o2)cc1	-47	18	-25	-5	-2	27
Fc1ccc(-c2nnc(NC3=NCCCCC3)o2)cc1	/	-60	62*	-11	18	/
COc1ccc(S(=O)(=O)Nc2cccc3c2O[C@H](CN(C)Cc2ccc(Cl)c(Cl)c2)[C@@H](C)CN([C@H](C)CO)C3=O)cc1	16	4	-8	98*!	-27	-3
C[C@H](CO)N1C[C@H](C)[C@@H](CN(C)Cc2ccc(Cl)c(Cl)c2)Oc2c(NS(=O)(=O)c3ccccc3)cccc2C1=O	-12	/	/	106*![16.7 µM]	-31	/
COc1ccc(S(=O)(=O)Nc2cccc3c2O[C@@H](CN(C)Cc2ccc(C(F)(F)F)cc2)[C@H](C)CN([C@H](C)CO)C3=O)cc1	13	/	/	102*[16.7 µM]	-5	/
CCCc1cn(CC[C@@H]2CC[C@@H](NC(=O)C3CCC3)[C@H](CO)O2)nn1	-9	/	/	/	11	/
C[C@@H]1CCCCO[C@@H](CN(C)Cc2ccc3c(c2)OCO3)[C@H](C)CN([C@@H](C)CO)C(=O)c2cc(NC(=O)Nc3ccc(F)cc3)ccc2O1	26	/	/	-3[16.7 µM]	4	/
Cc1ccc(C)n1-c1ccc(C(=O)Nc2ccccc2)cc1	/	44	-39	/	/	102*
COc1ccc(C(=O)Nc2ccc3c4c(cccc24)CC3)cc1	/	87*	-89	-1	86*	15
Cc1ccc(C)n1-c1cccc(NC(=O)c2ccccc2)c1	/	-11	13	/	/	/
CCOC(=O)c1ccc(Nc2cnc3ccccc3n2)cc1	/	?	-93	/	7	34*
O=C(O)c1ccc(Nc2cnc3ccccc3n2)cc1	/	18	-16	-6	-1	/
O=C(NNC(=S)Nc1ccccc1)c1ccc(O)cc1	/	?	-80	-1	-4	57*
C[C@@H]1CN([C@@H](C)CO)C(=O)Cc2cc(NC(=O)c3ccncc3)ccc2O[C@H]1CN(C)Cc1ccc(Oc2ccccc2)cc1	5	/	/	-30[16.7 µM]	-2	/
O=C/C=C/c1ccc(-c2ccccc2)cc1	-12	/	/	/	-74	/
C[C@H]1CCCCO[C@@H](CN(C)S(=O)(=O)c2cccs2)[C@@H](C)CN([C@@H](C)CO)C(=O)c2cc(NS(=O)(=O)c3cn(C)cn3)ccc2O1	-7	/	/	0[16.7 µM]	15	/
O=C(NNC(=O)c1ccc(NC(=O)c2ccccc2)cc1)c1ccc(F)cc1	-7	-8	7	-3	1	-1
COc1ccc(NC(=O)c2cc(C)on2)cc1	/	75	-71	-4	9	34*

The closing 4 entries of the part above come first, to join the parts.
SMILES	UUG fidelity	MITF act	TRPM1 prom inh	miR-122 sensor	PGC1a acetyl inh	Wnt bcat act
O=C/C=C/c1ccc(-c2ccccc2)cc1	-12	/	/	/	-74	/
C[C@H]1CCCCO[C@@H](CN(C)S(=O)(=O)c2cccs2)[C@@H](C)CN([C@@H](C)CO)C(=O)c2cc(NS(=O)(=O)c3cn(C)cn3)ccc2O1	-7	/	/	0[16.7 µM]	15	/
O=C(NNC(=O)c1ccc(NC(=O)c2ccccc2)cc1)c1ccc(F)cc1	-7	-8	7	-3	1	-1
COc1ccc(NC(=O)c2cc(C)on2)cc1	/	75	-71	-4	9	34*
COC(=O)c1c(NC(=O)CCC(=O)O)sc(Cc2ccccc2)c1C	6	0	6	-17	-7	7
CC(C)(C)C(=O)NC(=S)Nc1ccc(C(F)(F)F)cc1	-5	18	-14	4	/	43*
O=C(Nc1ccc(C(=O)c2ccccc2)cc1)c1ccccc1	-13	127*	-134	/	-4	51*
COc1ccc(NC(=O)c2cc(C)on2)cc1OC	0	0	1	2	-7	/

PGC1a acetyl inh, entries above that show a hit.
SMILES	UUG fidelity	MITF act	TRPM1 prom inh	miR-122 sensor	PGC1a acetyl inh	Wnt bcat act
COc1ccc(C(=O)Nc2ccc3c4c(cccc24)CC3)cc1	/	87*	-89	-1	86*	15
